# Experimental data reported in PMC8535469, “Insight into the Binding and Hydrolytic Preferences of hNudt16 Based on Nucleotide Diphosphate Substrates” (International Journal of Molecular Sciences, 2021).
# Sequences of proteins named here, by UniProt entry; tags and fusion partners are left off.
# UniProt Q96DE0, whole entry E76Q: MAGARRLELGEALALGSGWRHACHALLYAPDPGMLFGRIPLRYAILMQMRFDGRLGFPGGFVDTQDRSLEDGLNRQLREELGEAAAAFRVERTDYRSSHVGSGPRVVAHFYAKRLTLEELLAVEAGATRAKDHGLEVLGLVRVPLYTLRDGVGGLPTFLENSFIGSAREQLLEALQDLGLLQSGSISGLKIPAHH
# Where two headings read alike, the source gives them in different places.
# Target: T1, hNudt16E76Q (Homo sapiens, UniProt Q96DE0, E76Q)
# T1 construct: 4xHis (four added histidines); made in house; host or cells: E. coli Rosetta 2 (DE3), pET16b
# Test: Microscale thermophoresis (MST) binding, two independent binding sites model
# Description: Binding constants for protein–ligand pairs were established using the MST method. The hNudt16 E76Q was labeled with RED-tris-NTA 2nd Generation dye (Monolith HIS-tag labeling Kit, NanoTemper Technologies, München, Germany) according to the manufacturer’s instructions. Measurements were carried out in a wide range of ligand concentrations, selected after preliminary tests for each of the ligands. The results obtained were used to determine of binding parameters for a given ligand. Each MST measurement consisted of a series of 16 serial 1:2 dilutions of the ligand, and was performed at a constant dye-labeled protein concentration of 50 nM. After 10 min of pre-incubation, dye-labeled protein–ligand samples were manually loaded into Monolith™ NT.115 Premium Capillaries (NanoTemper Technologies, München, Germany) and analyzed using the Monolith NT.115 (NanoTemper Technologies). […] Analysis was performed using Origin package (OriginLab, Northampton, MA, USA) and dissociation constants were fitted globally for a series of at least six MST pseudo-titration experiments for each ligand. Up to 10 replicates were performed for some ligands.
# For the dissociation constants obtained, we also calculated the free energy associated with the dissociation of the complex ΔGdiss according to the equation: ΔGdiss=−RTlnKd.
substance,measurement,setting,value
Adenosine diphosphate ribose [ADPr],ΔGdiss1 (for Kd1),calculated as −RTlnKd from MST Kd1,15.60 kJ/mol
same,Kd,"second, weaker binding site, read-out: Kd2",≥ 19900 µM
same,Kd,"stronger binding site, 50 nM dye-labeled protein, read-out: Kd1",1830 µM
